Reference: US12486268B2 (TRANSNEURAL THERAPEUTICS, INC., priority 2022, dated 2025)

Chains of the proteins cited; added tags and fusions are not shown.
UniProt P28223, whole entry: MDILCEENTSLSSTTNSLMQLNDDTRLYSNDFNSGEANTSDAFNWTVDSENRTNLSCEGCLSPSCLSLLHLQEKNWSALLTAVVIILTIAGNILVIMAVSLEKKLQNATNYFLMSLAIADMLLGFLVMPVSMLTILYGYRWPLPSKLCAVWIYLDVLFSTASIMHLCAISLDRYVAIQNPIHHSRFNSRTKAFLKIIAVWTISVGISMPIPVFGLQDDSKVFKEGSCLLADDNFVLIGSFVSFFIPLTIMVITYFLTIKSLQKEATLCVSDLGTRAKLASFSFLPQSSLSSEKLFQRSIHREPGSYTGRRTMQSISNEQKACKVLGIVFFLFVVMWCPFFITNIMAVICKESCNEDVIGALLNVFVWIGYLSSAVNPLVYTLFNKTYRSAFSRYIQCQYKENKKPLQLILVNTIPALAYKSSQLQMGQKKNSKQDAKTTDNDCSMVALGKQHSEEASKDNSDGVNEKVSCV

Molecular target: human serotonin 2A receptors (5-HT2AR) (Homo sapiens, UniProt P28223)
Test: IP1 accumulation assay (HTRF)
Details: for EC50: read-out: h5-HT2A EC50, IP1 production (proxy for Gq activation), HEK 293 cells expressing human 5-HT2AR; for h5-HT2A Emax: IP1 production, HEK 293 cells expressing human 5-HT2AR, relative to 5-HT
Protocol: The functional activity of disclosed compounds is measured using an IP1 (inositol monophosphate) accumulation assay. The effects of disclosed compounds on IP1 production (a proxy for Gq activation) was measured in HEK 293 cells expressing human serotonin 2A receptors (5-HT2AR) using a Homogeneous Time Resolved Fluorescence (HTRF) assay. Standard protocols are followed. Briefly, a cell suspension and test compound/s is incubated in a standard buffer. Following incubation, the cells are lysed, and the fluorescence acceptor and donor are added. After incubation the fluorescence transfer is measured, and data is analyzed using GraphPad Prism to generate concentration response curves.

Structure (SMILES): C1=C(c2c[nH]c3ncccc23)C2CCC(C1)N2 (single isomer, unassigned)
- EC50: > 10000 nM

Structure (SMILES): CC1C=C(c2nsc3ccccc23)CNC1 (single isomer, unassigned) [161 Isomer 1]
- h5-HT2A Emax: +++ (+++=>90)
- EC50: 100 to 1000 nM

Structure (SMILES): CC1C=C(c2nsc3ccccc23)CNC1 (single isomer, unassigned) [161 Isomer 2]
- h5-HT2A Emax: ++ (++=75 to 90)
- EC50: < 100 nM
